According to patent publication US11192850B2, “N-aryl oxamic acids” (Purdue Research Foundation, priority 2020, dated 2021):
pIC50: −log10 of the molar value.

The chains behind the UniProt entries cited, without tags or fusion partners. Where a name states a change or a piece, a line headed by the entry shows the natural chain unless it says otherwise. Residues count along the entry.
UniProt P24666: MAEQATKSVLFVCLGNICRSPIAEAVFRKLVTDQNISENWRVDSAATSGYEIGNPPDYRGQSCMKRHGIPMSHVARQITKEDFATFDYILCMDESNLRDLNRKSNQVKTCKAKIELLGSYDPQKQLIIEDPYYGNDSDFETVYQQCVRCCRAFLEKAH
UniProt Q13332: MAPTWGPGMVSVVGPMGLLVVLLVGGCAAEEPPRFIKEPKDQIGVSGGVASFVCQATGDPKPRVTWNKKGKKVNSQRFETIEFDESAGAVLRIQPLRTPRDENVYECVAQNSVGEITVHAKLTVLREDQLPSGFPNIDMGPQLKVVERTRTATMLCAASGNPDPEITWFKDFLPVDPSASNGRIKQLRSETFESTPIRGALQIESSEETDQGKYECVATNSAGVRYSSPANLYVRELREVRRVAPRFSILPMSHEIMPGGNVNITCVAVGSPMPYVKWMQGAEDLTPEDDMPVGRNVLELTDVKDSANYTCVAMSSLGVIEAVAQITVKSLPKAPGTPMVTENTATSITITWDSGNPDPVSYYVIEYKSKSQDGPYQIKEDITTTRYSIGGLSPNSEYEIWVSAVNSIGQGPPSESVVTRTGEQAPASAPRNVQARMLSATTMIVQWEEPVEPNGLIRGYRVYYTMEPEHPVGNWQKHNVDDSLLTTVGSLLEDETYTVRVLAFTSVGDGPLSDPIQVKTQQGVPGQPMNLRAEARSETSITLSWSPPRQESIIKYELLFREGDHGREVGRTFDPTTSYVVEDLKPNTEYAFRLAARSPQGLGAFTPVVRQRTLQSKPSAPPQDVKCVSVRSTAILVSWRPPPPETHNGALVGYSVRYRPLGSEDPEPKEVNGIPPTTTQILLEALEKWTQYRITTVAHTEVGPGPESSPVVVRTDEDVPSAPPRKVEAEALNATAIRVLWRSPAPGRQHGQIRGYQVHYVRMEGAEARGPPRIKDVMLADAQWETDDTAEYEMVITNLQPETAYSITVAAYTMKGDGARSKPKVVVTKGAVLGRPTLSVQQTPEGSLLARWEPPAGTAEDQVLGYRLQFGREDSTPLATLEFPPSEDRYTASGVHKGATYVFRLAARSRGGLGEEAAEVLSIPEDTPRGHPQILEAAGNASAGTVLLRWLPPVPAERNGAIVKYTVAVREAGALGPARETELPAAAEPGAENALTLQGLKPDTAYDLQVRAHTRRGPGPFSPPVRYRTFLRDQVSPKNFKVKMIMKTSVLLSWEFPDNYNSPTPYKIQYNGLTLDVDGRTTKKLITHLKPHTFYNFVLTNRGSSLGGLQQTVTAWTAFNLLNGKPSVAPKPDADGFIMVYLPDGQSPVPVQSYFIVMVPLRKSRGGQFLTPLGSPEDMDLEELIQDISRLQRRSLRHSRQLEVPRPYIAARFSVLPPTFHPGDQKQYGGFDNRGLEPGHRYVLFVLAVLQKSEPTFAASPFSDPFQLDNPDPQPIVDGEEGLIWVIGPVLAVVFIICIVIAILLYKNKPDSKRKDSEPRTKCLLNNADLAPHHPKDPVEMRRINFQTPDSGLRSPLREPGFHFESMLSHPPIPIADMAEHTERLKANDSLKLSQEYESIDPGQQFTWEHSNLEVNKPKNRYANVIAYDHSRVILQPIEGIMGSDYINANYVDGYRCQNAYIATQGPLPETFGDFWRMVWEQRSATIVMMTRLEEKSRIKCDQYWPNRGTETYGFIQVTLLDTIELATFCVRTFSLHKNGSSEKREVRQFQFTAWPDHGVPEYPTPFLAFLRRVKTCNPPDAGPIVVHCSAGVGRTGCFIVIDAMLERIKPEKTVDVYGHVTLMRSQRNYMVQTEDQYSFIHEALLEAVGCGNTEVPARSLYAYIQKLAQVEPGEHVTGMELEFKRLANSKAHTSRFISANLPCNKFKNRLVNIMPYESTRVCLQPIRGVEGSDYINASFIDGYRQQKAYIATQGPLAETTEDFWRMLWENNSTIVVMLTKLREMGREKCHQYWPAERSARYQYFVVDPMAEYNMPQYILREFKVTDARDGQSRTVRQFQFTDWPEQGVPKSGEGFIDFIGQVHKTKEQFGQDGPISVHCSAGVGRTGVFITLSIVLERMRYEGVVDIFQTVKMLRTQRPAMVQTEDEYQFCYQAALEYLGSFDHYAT
UniProt P15273, 152-461 limits assumed: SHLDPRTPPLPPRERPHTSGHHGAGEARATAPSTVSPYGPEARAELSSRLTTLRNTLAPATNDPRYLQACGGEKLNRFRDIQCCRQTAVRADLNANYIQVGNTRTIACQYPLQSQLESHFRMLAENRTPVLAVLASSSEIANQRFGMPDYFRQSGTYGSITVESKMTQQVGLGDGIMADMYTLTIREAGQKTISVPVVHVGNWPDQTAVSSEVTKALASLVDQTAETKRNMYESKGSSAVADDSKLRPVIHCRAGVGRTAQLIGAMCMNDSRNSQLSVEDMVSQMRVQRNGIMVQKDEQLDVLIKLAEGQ

Legend:
Experiment in all cases: biochemical
LMPTP-1 = LMPTP-1 (Homo sapiens (Human), UniProt P24666)
PTPσ = PTPσ (Homo sapiens (Human), UniProt Q13332)
YopH = YopH (Yersinia enterocolitica, UniProt P15273)

| SMILES | pIC50 (LMPTP-1) | pIC50 (PTPσ) | pIC50 (YopH) |
| --- | --- | --- | --- |
| O=C(O)C(=O)Nc1ccc(C#Cc2ccc(C(F)(F)F)cc2)cc1 [Compound 4k, 2-oxo-2-((4-((4-(trifluoromethyl)phenyl)ethynyl)phenyl)amino)acetic Acid] | < 4.52 | < 4.52 | < 4.52 |
| O=C(O)C(=O)Nc1ccc(C#Cc2ccc(C(F)(F)F)cc2Cl)cc1 [Compound 4t, 2-((4-((2-chloro-4-(trifluoromethyl)phenyl)ethynyl)phenyl)amino)-2-oxoacetic Acid] | < 4.52 | < 4.52 | < 4.52 |
| CN(C)c1cc(O)c(C(=O)O)cc1C#Cc1cccc(NC(=O)C(=O)O)c1 [Compound 4g, 5-((3-(carboxyformamido)phenyl)ethynyl)-4-(dimethylamino)-2-hydroxybenzoic Acid] | – | < 4.30 | < 4.30 |
